Literature values in patent publication US20260015582A1, “METHODS OF T CELL DIFFERENTIATION AND COMPOSITIONS THEREOF” (THE CHILDREN'S MEDICAL CENTER CORPORATION, priority 2022, published 2026).

Chains of the proteins cited; added tags and fusions are not shown. Lines headed by an entry give the natural chain unless they say otherwise; changes in a name come on top.
UniProt P26358: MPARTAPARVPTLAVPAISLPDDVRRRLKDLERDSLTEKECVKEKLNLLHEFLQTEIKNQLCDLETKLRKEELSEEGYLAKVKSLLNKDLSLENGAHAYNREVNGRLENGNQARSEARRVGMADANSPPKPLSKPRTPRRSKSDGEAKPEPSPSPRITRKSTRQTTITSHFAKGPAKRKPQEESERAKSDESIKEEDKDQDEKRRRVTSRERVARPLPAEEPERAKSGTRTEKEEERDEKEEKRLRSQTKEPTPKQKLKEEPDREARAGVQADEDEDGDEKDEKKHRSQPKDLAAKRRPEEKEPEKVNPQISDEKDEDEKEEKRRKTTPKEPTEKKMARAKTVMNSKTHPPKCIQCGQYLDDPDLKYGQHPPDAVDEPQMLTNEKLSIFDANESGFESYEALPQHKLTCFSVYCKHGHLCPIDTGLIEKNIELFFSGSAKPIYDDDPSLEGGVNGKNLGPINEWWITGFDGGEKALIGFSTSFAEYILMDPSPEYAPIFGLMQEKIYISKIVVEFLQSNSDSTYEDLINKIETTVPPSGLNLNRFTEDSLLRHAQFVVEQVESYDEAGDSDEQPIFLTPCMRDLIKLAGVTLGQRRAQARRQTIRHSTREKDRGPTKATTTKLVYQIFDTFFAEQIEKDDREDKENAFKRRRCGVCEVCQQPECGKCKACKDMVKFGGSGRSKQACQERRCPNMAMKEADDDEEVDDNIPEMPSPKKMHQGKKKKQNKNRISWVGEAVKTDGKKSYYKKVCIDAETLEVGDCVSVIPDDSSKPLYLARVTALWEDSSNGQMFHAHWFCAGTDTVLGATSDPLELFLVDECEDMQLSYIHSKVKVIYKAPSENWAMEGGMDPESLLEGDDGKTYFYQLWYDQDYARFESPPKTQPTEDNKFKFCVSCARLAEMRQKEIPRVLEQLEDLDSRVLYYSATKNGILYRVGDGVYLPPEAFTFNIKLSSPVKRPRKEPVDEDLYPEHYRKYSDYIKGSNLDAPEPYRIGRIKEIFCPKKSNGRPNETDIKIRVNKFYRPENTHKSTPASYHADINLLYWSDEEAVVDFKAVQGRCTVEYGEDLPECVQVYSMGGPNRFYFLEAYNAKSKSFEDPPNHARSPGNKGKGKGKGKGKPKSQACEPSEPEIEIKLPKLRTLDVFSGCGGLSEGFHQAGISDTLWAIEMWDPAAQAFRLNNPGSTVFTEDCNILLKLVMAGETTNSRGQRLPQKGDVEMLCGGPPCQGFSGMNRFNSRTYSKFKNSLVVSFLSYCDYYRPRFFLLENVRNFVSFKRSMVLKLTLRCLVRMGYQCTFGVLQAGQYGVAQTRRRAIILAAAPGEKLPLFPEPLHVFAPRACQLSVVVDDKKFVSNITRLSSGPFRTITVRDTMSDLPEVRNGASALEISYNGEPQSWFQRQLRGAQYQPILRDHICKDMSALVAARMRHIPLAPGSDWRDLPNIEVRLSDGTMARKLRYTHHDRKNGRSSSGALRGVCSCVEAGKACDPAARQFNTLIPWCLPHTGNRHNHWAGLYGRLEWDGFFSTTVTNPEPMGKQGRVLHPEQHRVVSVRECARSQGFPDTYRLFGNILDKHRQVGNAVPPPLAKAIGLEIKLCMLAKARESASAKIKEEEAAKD
UniProt O43463: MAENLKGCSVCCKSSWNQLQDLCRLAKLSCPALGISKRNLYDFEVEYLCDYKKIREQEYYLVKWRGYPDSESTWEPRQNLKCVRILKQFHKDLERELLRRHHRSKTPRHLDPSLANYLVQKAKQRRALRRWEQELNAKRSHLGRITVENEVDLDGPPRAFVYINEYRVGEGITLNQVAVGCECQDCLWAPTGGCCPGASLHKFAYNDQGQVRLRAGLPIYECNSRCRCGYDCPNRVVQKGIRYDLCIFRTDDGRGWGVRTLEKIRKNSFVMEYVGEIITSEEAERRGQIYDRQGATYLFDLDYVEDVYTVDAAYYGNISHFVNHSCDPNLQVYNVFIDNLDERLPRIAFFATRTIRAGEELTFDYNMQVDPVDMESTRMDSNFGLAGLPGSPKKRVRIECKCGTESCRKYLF

Key:
NDMT1 = NDMT1 (Homo sapiens, UniProt P26358); conditions: cited from earlier work
SU39H1 = SU39H1 (Homo sapiens, UniProt O43463); conditions: cited from earlier work

In the case of `O=C(O)c1ccc2c(c1)nc(NC(=O)c1ccccc1)n2CCCc1ccccc1` [BRD9539], the “concentration up to which selective for G9a and PRC2 over NDMT1” value (NDMT1) is listed as no more than 40 µM and the “concentration up to which selective for G9a and PRC2 over SU39H1” value (SU39H1) is listed as no more than 40 µM.
